According to PubChem BioAssay AID624418 (National Center for Advancing Translational Sciences (NCATS), 2012):
This is a selection; strong and weak results do not stand in their true shares. Records with an inconclusive call do not appear. Active and inactive are the calls of the source. Calls follow the shape of the dose curve; as a rule, active = well fitted inhibition curve with a large enough effect; inconclusive = small, poorly fitted or top-dose-only effect, or another doubt; inactive = no such curve, though single readings can be large or run the other way.

Experiment: qHTS of GLP-1 Receptor Inverse Agonists: Cytotox Screen;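 also: loss of luciferase light is scored as toxicity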
Settings: HEK293 cAMP-luciferase reporter cells, luminescence, 24 h; series mostly up to 38.3 µM; activity change, negative = inhibition: at the top concentration
From the text: The overall goal of this project was to develop a novel assay for discovering small molecule ligands for class B1 G protein-coupled receptors (GPCRs). Very few agonists (or inverse agonists) with generally weak activity for this entire group of physiologically important receptors are known to date. To establish proof-of-principle that this critical bottleneck can be overcome with a suitable screening approach, our studies focused on the class B1 receptor for glucagon-like peptide-1 (GLP-1R), a potential therapeutic target for diabetes and neurodegenerative disease.
The assay was developed using a cell-based functional readout. Toward this goal, stably transfected HEK293 cell clones were established that co-express (i) a cAMP-responsive luciferase reporter gene, and (ii) constitutively active GLP-1R that upon ligand interaction inhibit (inverse agonists) the luciferase activity. In addition, two control cell lines were developed: (i) one that express only the cAMP-responsive reporter gene to enable initial exclusion of GLP-1R independent effects of candidate probes; and (ii) one with the reported gene cloned with another constitutively active orphan receptor GPR119 to enable exclusion of GLP-1R independent inhibitor effects of candidate inverse agonists.
To that end, this assay was optimized for 1536-well format and screened against the MLSMR. Then the same collection was run in this cytotoxicity assay where inhibition was the undesired outcome.
NIH Molecular Libraries Probe Production Network [MLPCN]
NIH Chemical Genomics Center [NCGC]
PI Name: Martin Beinborn, Tufts Medical Center
Six ul of cell suspension (200 cells/uL in DMEM + 10% Nu serum + 1% pen-strep) is dispensed in a white solid 1536-well plate. The plates are incubated for 12 hours at 37 deg C at 5% CO2 followed by addition of 23 nL compounds. After 24 hr incubation at 37 deg C and 5% CO2, 3 uL of luciferase assay detection reagent is added. A luminescence read is obtained on the PerkinElmer Viewlux after 12 min incubation at room temperature.
% is scaled to controls: 0 for no effect and ±100 for the full control effect.

Row | Compound | activity change, negative = inhibition
1 | CS(=O)(=O)c1cc([N+](=O)[O-])c2no[n+]([O-])c2c1 | inactive: 42.8%
2 | O=P(Nc1nccs1)(Oc1ccccc1)Oc1ccccc1 | inactive: -8.71%
3 | CCOP1(=S)c2c(C)nn(CCC#N)c2N=C(c2ccccc2F)N1C (stereo not given) | inactive: 11.1%
4 | O=C(O)COc1ccc([As](=O)(O)O)cc1[N+](=O)[O-] | inactive: -0.599%
5 | Nc1ccccc1[As](=O)(O)c1ccccc1 | inactive: -3.35%
6 | NC(=O)Nc1ccc([As](=O)(O)O)cc1 | inactive: 1.5%
7 | CN(C(=O)Cc1ccc(Cl)c(Cl)c1)[C@H]1CC[C@@]2(CCCO2)C[C@@H]1N1CCCC1 | inactive: 4.38%
8 | O=[N+]([O-])c1ccc2c(c1)nnn2O | inactive: -2.85%
9 | CN(C(=O)Cc1ccccc1)[C@@H]1CC[C@]2(CCCO2)C[C@H]1N1CCCC1 | inactive: 0.281%
10 | CCOP1(=S)c2c(C)nn(CCC#N)c2N=C(c2ccc(F)cc2)N1C (stereo not given) | inactive: -0.673%
11 | N#CCCN(C(=O)COC(=O)C(O)(c1ccccc1)c1ccccc1)c1ccc(F)cc1 | inactive: -1.3%
12 | CS(=O)(=O)c1ccc(Cl)c(NC(=O)COC(=O)C(O)(c2ccccc2)c2ccccc2)c1 | inactive: -13.4%
13 | COc1cc(C(=O)NCC2(N3CCOCC3)CCCCC2)cc(Cl)c1OC(C)C | inactive: -4.62%
14 | O=[As](O)(O)c1cccnc1 | inactive: 0.402%
15 | O=C(OC1CN2CCC1CC2)c1ccc(Cl)cc1 (stereo not given) | inactive: -5.03%
16 | O=[As](O)(c1cccc(O)c1)c1cccc(O)c1 | inactive: 3.74%
17 | Cc1cccc(OCC(=O)OC2CN3CCC2CC3)c1 (stereo not given) | inactive: 8.08%
18 | CCCOP(=S)(Nc1nc(N)cc(=O)[nH]1)OCCC | inactive: -24.6%
19 | Nc1cccc2c([As](=O)(O)O)cccc12 | inactive: 20.8%
20 | Cc1ccc(NCCc2c([N+](=O)[O-])cc([N+](=O)[O-])cc2[N+](=O)[O-])cc1 | inactive: -22.3%

Row | Compound | activity change, negative = inhibition
21 | CCOP(=O)(Nc1cccc2ccccc12)OCC | inactive: 0.0567%
22 | COc1cc(C2NCCC3(OCCO3)C2(C)C)cc(OC)c1OC (stereo not given) | inactive: -6.07%
23 | CN(CCCl)Cc1cc(Cl)c(NC2=NCCN2)c(Cl)c1 | inactive: -4.19%
24 | CCOP(=O)(Nc1ccc(C)cn1)OCC | inactive: 18.4%
25 | CCOP(=O)(NC(=NC(C)c1ccccc1)NC(C)c1ccccc1)OCC (stereo not given) | inactive: 2.43%
26 | CCC1=CC2Cc3nc4ccc(Cl)cc4c(N)c3C(C1)C2 (stereo not given) | inactive: -19.8%
27 | O=P1(Nc2ccccn2)COc2ccccc2OC1 | inactive: 25.3%
28 | CC(C)(C)C(=O)NC(Sc1ncccn1)C(Cl)(Cl)Cl (stereo not given) | inactive: 1.49%
29 | Clc1n[nH]nc1-c1nn[nH][15n]1 | inactive: 3.23%
30 | O=P1(N(CCCl)CCCl)NCCC(C(F)(F)F)O1 (stereo not given) | inactive: 5.77%
31 | COc1ccccc1CNC(=O)COC(=O)C(O)(c1ccccc1)c1ccccc1 | inactive: 2.09%
32 | CC1(CBr)Cn2c(nc3ccccc3c2=O)S1 (stereo not given) | inactive: -16.1%
33 | CC(C)/C=N\N=C(\N)N[N+](=O)[O-] | inactive: -6.58%
34 | Cc1ccc(C(=O)OC2CN3CCC2CC3)cc1 (stereo not given) | inactive: 8.57%
35 | CC1CCC(C(C)C)C(OP(=O)(Nc2ccccn2)c2ccccc2)C1 (stereo not given) | inactive: -21.1%
36 | Cc1nn(-c2ccccc2)c2c1P(=O)(N1CCOCC1)N(C)C(c1ccccc1)=N2 (stereo not given) | inactive: 2%
37 | CCCC1OP(=O)(Nc2ccccc2)OCC1CC (stereo not given) | inactive: -9.44%
38 | O=C(/C=C/c1ccccc1)OC1CN2CCC1CC2 (stereo not given) | inactive: -0.84%
39 | CN(C)C1(CNC(=O)c2ccc(S(C)(=O)=O)cc2)CCCCC1 | inactive: -0.727% [at 7.66 µM]
40 | O=P1(Nc2ncccn2)COc2ccccc2OC1 | inactive: -5.64%

Row | Compound | activity change, negative = inhibition
41 | Cc1ccc(S(=O)(=O)N(CCCN)CCCc2c(C)nc(N)[nH]c2=O)cc1 | inactive: -24.6%
42 | NS(=O)(=O)c1cccc(NC(=O)COC(=O)C(O)(c2ccccc2)c2ccccc2)c1 | inactive: 0.603%
43 | O=P1(Nc2ccc(Br)cn2)COc2ccccc2OC1 | inactive: 6.02%
44 | O=[As](O)(c1cccs1)c1cccs1 | inactive: -5.37%
45 | Cc1ccc(OCC(=O)OC2CN3CCC2CC3)cc1 (stereo not given) | inactive: -14.1%
46 | Nc1cccc([As](=O)(O)c2ccccc2)c1 | inactive: -3.59%
47 | CC1CCNP(=O)(N(CCCl)CCCl)O1 (stereo not given) | inactive: -4.39%
48 | O=C(O)C(O)c1ccc(N(CCCl)CCCl)cc1 (stereo not given) | inactive: -5.28%
49 | CCOC(=O)Nc1ccc([As](=O)(O)O)c(O)c1 | inactive: -5.48%
50 | Cc1cc(SC(NC(=O)c2ccccc2)C(Cl)(Cl)Cl)nc(C(C)C)n1 (stereo not given) | inactive: 14.3%
51 | CCCCOc1ccc(C(=O)NCC2(N3CCCCC3)CCCCC2)cc1OC | inactive: -17%
52 | COP(=O)(OC)N1CC1c1ccccc1 (stereo not given) | inactive: 8.55%
53 | CCOC(=O)Nc1cccc([As](=O)(O)O)c1 | inactive: 9.53%
54 | O=[N+]([O-])c1ccc(Nc2ccc(Oc3ccc([N+](=O)[O-])cc3[N+](=O)[O-])cc2)c([N+](=O)[O-])c1 | inactive: 1.51%
55 | Cc1cc(SC(NC=O)C(Cl)(Cl)Cl)ncn1 (stereo not given) | inactive: -0.404%
56 | O=P(Nc1ccccn1)(c1cccc2ccccc12)c1cccc2ccccc12 | inactive: -17.3%
57 | COC(=O)C1(C)COP(=O)(N2CCCC2)OC1 (stereo not given) | inactive: 2.67%
58 | COP1(=S)c2c(C)nn(CCC#N)c2N=C(c2ccc(F)cc2)N1C (stereo not given) | inactive: -5.81%
59 | O=C(Nc1ccncc1[N+](=O)[O-])c1ccc([N+](=O)[O-])cc1[N+](=O)[O-] | inactive: -1.14%
60 | O=C(COc1ccccc1)OC1CN2CCC1CC2 (stereo not given) | inactive: -8.87%
